Consider eleven compounds from US5635477A, “Cyclic compounds useful as inhibitors of platelet glycoprotein IIB/IIIA” (The DuPont Merck Pharmaceutical Company, priority 1995, dated 1997).

The chains behind the UniProt entries cited, without tags or fusion partners. Residues count along the entry.
UniProt P05106, 27-788 limits assumed: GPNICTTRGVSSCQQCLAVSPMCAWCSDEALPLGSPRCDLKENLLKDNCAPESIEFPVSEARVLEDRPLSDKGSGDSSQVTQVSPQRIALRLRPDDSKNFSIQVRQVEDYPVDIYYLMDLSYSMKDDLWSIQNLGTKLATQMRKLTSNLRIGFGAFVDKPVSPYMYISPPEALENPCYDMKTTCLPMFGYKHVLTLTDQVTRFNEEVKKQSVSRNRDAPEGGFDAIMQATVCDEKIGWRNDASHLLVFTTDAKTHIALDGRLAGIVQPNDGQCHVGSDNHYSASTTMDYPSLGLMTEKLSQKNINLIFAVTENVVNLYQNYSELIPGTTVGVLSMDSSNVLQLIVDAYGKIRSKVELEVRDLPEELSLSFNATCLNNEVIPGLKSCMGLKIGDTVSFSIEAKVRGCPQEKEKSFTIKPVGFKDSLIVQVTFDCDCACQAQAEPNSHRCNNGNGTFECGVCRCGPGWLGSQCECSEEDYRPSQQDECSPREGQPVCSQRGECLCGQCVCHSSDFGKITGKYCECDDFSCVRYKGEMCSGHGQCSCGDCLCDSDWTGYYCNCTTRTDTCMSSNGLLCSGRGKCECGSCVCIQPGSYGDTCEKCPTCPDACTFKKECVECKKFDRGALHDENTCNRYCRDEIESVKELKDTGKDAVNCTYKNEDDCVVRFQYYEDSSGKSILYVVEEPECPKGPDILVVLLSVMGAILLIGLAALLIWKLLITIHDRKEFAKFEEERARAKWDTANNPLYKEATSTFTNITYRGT
UniProt P08514, 32-1039 limits assumed: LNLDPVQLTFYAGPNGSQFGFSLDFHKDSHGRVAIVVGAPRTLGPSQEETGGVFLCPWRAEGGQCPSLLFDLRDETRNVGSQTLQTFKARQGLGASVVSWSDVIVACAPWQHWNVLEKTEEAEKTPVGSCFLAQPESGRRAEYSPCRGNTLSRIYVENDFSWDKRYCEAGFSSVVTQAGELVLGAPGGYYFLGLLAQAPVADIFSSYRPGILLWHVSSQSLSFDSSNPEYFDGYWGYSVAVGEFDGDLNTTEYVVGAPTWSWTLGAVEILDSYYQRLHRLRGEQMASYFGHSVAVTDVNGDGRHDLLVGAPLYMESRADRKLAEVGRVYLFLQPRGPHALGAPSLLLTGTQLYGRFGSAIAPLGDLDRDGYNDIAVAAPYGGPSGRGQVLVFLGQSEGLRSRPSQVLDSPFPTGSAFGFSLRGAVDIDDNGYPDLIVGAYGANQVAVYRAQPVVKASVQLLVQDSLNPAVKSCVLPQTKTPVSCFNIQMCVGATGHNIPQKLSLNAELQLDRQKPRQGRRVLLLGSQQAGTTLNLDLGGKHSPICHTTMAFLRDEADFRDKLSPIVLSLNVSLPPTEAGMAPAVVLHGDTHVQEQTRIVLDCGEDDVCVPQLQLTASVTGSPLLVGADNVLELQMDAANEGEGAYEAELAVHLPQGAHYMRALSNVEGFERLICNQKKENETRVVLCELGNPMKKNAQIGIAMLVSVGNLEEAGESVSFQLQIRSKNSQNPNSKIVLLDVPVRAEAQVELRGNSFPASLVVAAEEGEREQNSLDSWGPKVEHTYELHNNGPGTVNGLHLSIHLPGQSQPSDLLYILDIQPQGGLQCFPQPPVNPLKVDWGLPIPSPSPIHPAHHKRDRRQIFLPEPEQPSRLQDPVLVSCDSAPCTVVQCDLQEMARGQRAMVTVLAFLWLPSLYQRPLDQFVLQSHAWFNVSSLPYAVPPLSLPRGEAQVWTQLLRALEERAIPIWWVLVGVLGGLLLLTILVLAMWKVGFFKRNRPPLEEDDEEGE

SMILES strings stand for the structures. Where only a bound is given, the exact number is not on record here.

The target of the experiment is agonist-induced platelet aggregation (Homo sapiens, UniProt P05106+P08514). Description: Platelet Aggregation Assay. As to conditions: read-out: IC50 value in the platelet aggregation assay, human PRP.
What is called IC50 is the concentration that inhibits the measured activity by half. Turning to `CN1C(=O)C(CCCCNC(=O)c2ccc(-c3ccccc3)cc2)NC(=O)c2cccc(c2)CNC(=O)[C@H](CC(=O)O)NC(=O)CNC(=O)[C@@H]1CCCNC(=N)N` (some centres unmarked), the half-inhibitory concentration (IC50) was below 1000 nM.

For the compound `CN(C)c1cccc2c(S(=O)(=O)NCCCCC3NC(=O)c4cccc(c4)CNC(=O)[C@H](CC(=O)O)NC(=O)CNC(=O)[C@H](CCCNC(=N)N)N(C)C3=O)cccc12` (some centres unmarked), the IC50 is below 1000 nM.

Turning to `CN1C(=O)C(CCCCNC(=O)c2ccc(C(=O)c3ccccc3)cc2)NC(=O)c2cccc(c2)CNC(=O)[C@H](CC(=O)O)NC(=O)CNC(=O)[C@@H]1CCCNC(=N)N` (some centres unmarked), the IC50 is below 1000 nM.

For the compound `CN1C(=O)C(CCCCNC(=O)c2cccc(C(=O)c3ccccc3)c2)NC(=O)c2cccc(c2)CNC(=O)[C@H](CC(=O)O)NC(=O)CNC(=O)[C@@H]1CCCNC(=N)N` (some centres unmarked), the IC50 is below 1000 nM.

Consider `CN1C(=O)C(CCCCNC(=O)c2ccccc2Cc2ccccc2)NC(=O)c2cccc(c2)CNC(=O)[C@H](CC(=O)O)NC(=O)CNC(=O)[C@@H]1CCCNC(=N)N` (some centres unmarked), for which the IC50 is below 1000 nM.

In the case of `CN1C(=O)C(CCCCNC(=O)CN)NC(=O)c2cccc(c2)CNC(=O)[C@H](CC(=O)O)NC(=O)CNC(=O)[C@@H]1CCCNC(=N)N` (some centres unmarked), the IC50 is below 1000 nM.

For the compound `CC(=O)c1ccc(C(=O)NCCCCC2NC(=O)c3cccc(c3)CNC(=O)[C@H](CC(=O)O)NC(=O)CNC(=O)[C@H](CCCNC(=N)N)N(C)C2=O)cc1` (some centres unmarked), the IC50 is below 1000 nM.

Turning to `CN1C(=O)C(CCCCNC(=O)c2ccc(N=[N+]=[N-])cc2)NC(=O)c2cccc(c2)CNC(=O)[C@H](CC(=O)O)NC(=O)CNC(=O)[C@@H]1CCCNC(=N)N` (some centres unmarked), the IC50 was below 1000 nM.

For the compound `CN1C(=O)C(CCCCNC(=O)c2ccccc2C(=O)c2ccccc2)NC(=O)c2cccc(c2)CNC(=O)[C@H](CC(=O)O)NC(=O)CNC(=O)[C@@H]1CCCNC(=N)N` (some centres unmarked), the IC50 was in the range of 1000 to 10000 nM.

Take `CN1C(=O)C(CCCCNC(=O)CNC(=O)OC(C)(C)C)NC(=O)c2cccc(c2)CNC(=O)[C@H](CC(=O)O)NC(=O)CNC(=O)[C@@H]1CCCNC(=N)N` (some centres unmarked): the IC50 was 1000 to 10000 nM.

On to `CN1C(=O)C(CCCCNC(=O)C(N)Cc2c[nH]c3ccccc23)NC(=O)c2cccc(c2)CNC(=O)[C@H](CC(=O)O)NC(=O)CNC(=O)[C@@H]1CCCNC(=N)N` (some centres unmarked), for which the IC50 was below 1000 nM.
